## AlphaSeq binding of Ab-14 light chain variants to a spike HR2 peptide

The measurements come from Li et al. 2023 (doi:10.1038/s41467-023-39022-2) through the FLAb antibody collection.

The target is the same throughout: PDVDLGDISGINAS, from the HR2 region of SARS-CoV-2 spike.

Parent scFv Ab-14: VH joined to VL by a (GGGGS)3 linker. Changes lie in the light chain CDRs alone.
VH: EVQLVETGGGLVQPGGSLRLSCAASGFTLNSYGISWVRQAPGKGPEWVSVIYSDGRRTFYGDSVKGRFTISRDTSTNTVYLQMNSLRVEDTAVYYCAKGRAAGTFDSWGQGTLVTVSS
VL: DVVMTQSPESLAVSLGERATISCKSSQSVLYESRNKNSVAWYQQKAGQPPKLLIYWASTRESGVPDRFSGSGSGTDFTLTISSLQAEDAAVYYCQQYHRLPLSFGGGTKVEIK

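The parent was found by panning a naive human phage display library on the peptide. This is the validation round: designs drawn from the data on random variants, tested in the same kind of assay. Group labels follow the data file (Ctrl: baseline library sampled from a position-specific scoring matrix, with some repeated check sequences; Rand: our label for a block that the file lists under HC and that is probably the random mutants of the ten best first-round binders; En: ensemble of fine-tuned language models; GP: Gaussian process model; HC: hill climbing; Gen: genetic algorithm; Gibbs: Gibbs sampling; a sequence that several methods proposed may carry one label only). AlphaSeq pools MATa yeast showing the antibodies with MATalpha yeast showing the peptide. After mating in shaken culture at 30 °C for 16 h, diploids were selected and their barcode pairs sequenced. A regression on co-assayed BCL2-family reference pairs converts the normalised counts of each replicate to an apparent Kd. There are six technical replicates.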

Variants are written as CDR1, CDR2 and CDR3 of the light chain (limits as in the source). Parent: KSSQSVLYESRNKNSVA, WASTRES, QQYHRLPLS. Scale: log10 of Kd in nM, estimated from mating counts; low values are strong binders. A mean of the replicates is given; it leaves out those without a signal. An entry "nd" has no value in the source: the pair was not observed among the diploids in any replicate. This suggests poor binding but is not conclusive. The range of this assay differs from that of the first round, and the authors advise against merging the two. Of ten entries with the parent sequence, four were seen in most replicates (averages 0.34 to 2.37), three in one and three in none, so single entries are noisy. The authors' rule: three or more of the six replicates give a measured affinity, fewer mean a poor binder. Nonspecific signal, from three strains lacking the peptide, appeared in 4% of pairings of all light chain designs, centred on 2.64 (5% of these signals below 1.59); values are not corrected for it. Also given: how often the same scFv was detected with the empty control strains.

Result 2.65 (2 of 6 replicates; controls 1 of 18), variant KLGGEQQNSTYEKDNVA | DVNTTYE | QHYSRLPLT [En_Gibbs].
Result 1.37 (6 of 6 replicates; controls 0 of 18), variant NFGYALFAEDAKKKSIA | ENTVTEY | QQYSKLPLT [En_Gibbs].
Result 0.75 (6 of 6 replicates; controls 0 of 18), variant KSSQPLLYESSNKNSVA | MASTRES | QQYHRLPLS [Ctrl].
Result 0.34 (6 of 6 replicates; controls 1 of 18), variant KSSNSVLYESRNKNSVA | EASTREN | QQYHRLPLS [Ctrl].
Result 0.23 (6 of 6 replicates; controls 0 of 18), variant KLSQSELYESRNDNSVA | SASTRCE | QQYHRLPLS [GP_Gibbs].
Result 0.18 (6 of 6 replicates; controls 0 of 18), variant KSSISYLRESRNMNSVA | EASTREQ | QQYHRLPLS [GP_HC].
Result -0.39 (6 of 6 replicates; controls 0 of 18), variant KISGYLNKESKAKNNVA | EMVNRMS | QQYDRLPLS [En_HC].
Result 1.46 (6 of 6 replicates; controls 0 of 18), variant AVSIQHMENTAIWNAIA | DTSLRAH | QQYYHLPLS [En_Gibbs].
Result 1.95 (6 of 6 replicates; controls 2 of 18), variant KSSQSVLYEGRNKNSVA | WASTRES | QQYHRLPLS [Ctrl].
Result -0.02 (6 of 6 replicates; controls 3 of 18), variant KLSQSVLYESRNKNSVA | NASTRLM | QQYHRLPLS [GP_Gen].
Result -0.30 (6 of 6 replicates; controls 3 of 18), variant KLSQSYLYESRNKNSVA | NASTRES | QQYHRLPLM [GP_Gen].
Result nd (0 of 6 replicates; controls 1 of 18), variant KFSQSVLYESRTKNSVQ | NASTWES | QQYHRLPLS [Rand].
Result 0.32 (6 of 6 replicates; controls 0 of 18), variant SLMQSVLYESRNKNSVA | HASMRED | QQYHRLPLS [GP_HC].
Result 2.22 (6 of 6 replicates; controls 0 of 18), variant KIQHQHVGNWKTMDNIA | QGDQRCQ | QSYDRLPLS [En_Gibbs].
Result nd (0 of 6 replicates; controls 1 of 18), variant KSSQSVLKESRNKNSVA | WASTRGS | QQYHRLPLS [Ctrl].
Result -0.33 (6 of 6 replicates; controls 2 of 18), variant KISQSYLGESRNVNAVA | NASTRES | QQYHRLPLS [GP_Gibbs].
Result 0.30 (6 of 6 replicates; controls 3 of 18), variant HLSQSVDYESRQKNSVA | NAQTRMS | QQYHRLPLS [GP_Gibbs].
Result 1.05 (6 of 6 replicates; controls 3 of 18), variant SLHLYTLTEKNANNSIA | EKSYRAY | QQYSHLPLV [En_Gibbs].
Result 0.12 (6 of 6 replicates; controls 0 of 18), variant KSDQSELEESRNDNSVA | SANHRLS | QQYHRLPLS [GP_Gibbs].
Result 0.35 (6 of 6 replicates; controls 0 of 18), variant KVSEFMRGLIKMKDSIA | DNDTRNS | QQYDRLPLS [En_Gen].
Result 3.14 (5 of 6 replicates; controls 1 of 18), variant TLTQVTMVESYNKNSVA | QASTRLE | QCYHRLPLS [En_HC].
Result 0.53 (6 of 6 replicates; controls 0 of 18), variant TLTQSVGMESHNKNSVA | DLSNRGQ | QQYHRLPLS [En_HC].
Result 0.83 (6 of 6 replicates; controls 1 of 18), variant KLSFMVMEGSRNKNSVA | SASLREW | QQYHRLPLS [GP_Gibbs].
Result -0.40 (6 of 6 replicates; controls 1 of 18), variant KLSQSELYESRNKNNVA | EASTRES | QQYHRLPLS [GP_Gen].
Result 0.21 (6 of 6 replicates; controls 5 of 18), variant KLQQQWEYESRNKNSVA | SASTRES | QQYHRLPLS [GP_HC].
Result 0.57 (6 of 6 replicates; controls 3 of 18), variant KIHCRELWHQGQINNIA | EAAKLVE | QQYALLPLA [En_Gibbs].
Result 0.16 (6 of 6 replicates; controls 0 of 18), variant HITYGMQVAGRHSSSIA | QAEERAK | QQYDRLPLI [En_Gen].
Result 0.56 (6 of 6 replicates; controls 0 of 18), variant KVSQSWLYESRNKNSVA | GASTRES | QQYHRLPLI [GP_HC].
Result nd (0 of 6 replicates; controls 0 of 18), variant KSSQSVLYESTNKNSVA | WAGTRES | QQYHRLPLS [Ctrl].
Result 2.58 (3 of 6 replicates; controls 1 of 18), variant KSSQPVMYESRNKNSVA | WASTRES | QQYHRLPLS [Ctrl].
Result 0.63 (6 of 6 replicates; controls 0 of 18), variant KVSQSVEYEDRNKNSVA | MASQRCS | QQYHRLPLS [GP_Gibbs].
Result nd (0 of 6 replicates; controls 0 of 18), variant KSSQSVLYQLRNKNSVA | WASTRES | QQYHGLPLS [Ctrl].
Result 0.52 (6 of 6 replicates; controls 0 of 18), variant NLSQSALYESRNKNSVA | GGNTRES | QQYHRLPLS [GP_HC].
Result 0.01 (1 of 6 replicates; controls 0 of 18), variant KSMQSVLYNSLNKNSVA | WASTRES | VQYHRLPLS [Ctrl].
Result 0.29 (6 of 6 replicates; controls 1 of 18), variant KLWESVLGESRNWNAVA | SASTREE | QQYHRLPLS [GP_Gibbs].
Result 1.57 (6 of 6 replicates; controls 0 of 18), variant ILSQFMLTAGNKHSSVA | QANNRED | QQYHRLPLS [En_HC].
Result 1.03 (6 of 6 replicates; controls 0 of 18), variant KLQWLVLYSSRNKNSVA | NASTRES | QQYHRLPLS [GP_Gibbs].
Result 2.02 (6 of 6 replicates; controls 2 of 18), variant VSSQSGLDESRNKNSVA | WASTRES | QQYHRLPLS [Ctrl].
Result 0.62 (6 of 6 replicates; controls 2 of 18), variant TISQMLLMQTSHKNSVA | GEETRLN | QQYHHLPLS [En_HC].
Result 1.22 (6 of 6 replicates; controls 0 of 18), variant KSSQSVPKESRNKNNVA | DASTRES | QQYHGLPLS [Ctrl].

Repeated from above, the 6 best binders with a signal in all replicates:

With KLSQSELYESRNKNNVA | EASTRES | QQYHRLPLS [GP_Gen] the result was -0.40 (6 of 6 replicates; controls 1 of 18).
With KISGYLNKESKAKNNVA | EMVNRMS | QQYDRLPLS [En_HC] the result was -0.39 (6 of 6 replicates; controls 0 of 18).
With KISQSYLGESRNVNAVA | NASTRES | QQYHRLPLS [GP_Gibbs] the result was -0.33 (6 of 6 replicates; controls 2 of 18).
With KLSQSYLYESRNKNSVA | NASTRES | QQYHRLPLM [GP_Gen] the result was -0.30 (6 of 6 replicates; controls 3 of 18).
With KLSQSVLYESRNKNSVA | NASTRLM | QQYHRLPLS [GP_Gen] the result was -0.02 (6 of 6 replicates; controls 3 of 18).
With KSDQSELEESRNDNSVA | SANHRLS | QQYHRLPLS [GP_Gibbs] the result was 0.12 (6 of 6 replicates; controls 0 of 18).